Test results as given in US9828352B2, “Phenyl carbamates and their use as inhibitors of the fatty acid amide hydrolase (FAAH) enzyme and modulators of the D3 dopamine receptor (D3DR)” (FONDAZIONE ISTITUTO ITALIANO DI TECNOLOGIA, priority 2013, dated 2017).

Protein sequences, listed by entry. Tags and fused reporters are not part of them. Lines headed by an entry give the natural chain unless they say otherwise; changes in a name come on top.
UniProt P35462, whole entry: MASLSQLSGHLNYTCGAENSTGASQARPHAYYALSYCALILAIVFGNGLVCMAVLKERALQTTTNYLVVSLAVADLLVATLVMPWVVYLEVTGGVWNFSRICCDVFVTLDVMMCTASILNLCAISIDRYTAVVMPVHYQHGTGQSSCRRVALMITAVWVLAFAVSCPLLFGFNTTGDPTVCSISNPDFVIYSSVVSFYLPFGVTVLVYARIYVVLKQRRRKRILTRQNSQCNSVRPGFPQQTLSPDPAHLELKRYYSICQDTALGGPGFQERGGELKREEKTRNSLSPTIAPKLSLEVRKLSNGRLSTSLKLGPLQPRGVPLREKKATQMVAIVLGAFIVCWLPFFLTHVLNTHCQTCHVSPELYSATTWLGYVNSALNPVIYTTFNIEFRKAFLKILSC

Target: T1, human-D3R (Homo sapiens, UniProt P35462)
T1 construct: expressed in transfected cells; host or cells: CHO cell line stably transfected with human D3R
Assay: D3 Dopamine Receptor (D3dR) cellular assay, cAMP HTRF functional assay in human-D3R expressing CHO cells
Type: cell-based
Conditions: one experiment in duplicate
Method: D3 Dopamine Receptor (D3dR) Cellular Assay
Activity on D3R was tested with a cAMP functional assay on a stably transfected human-D3R expressing CHO cell line. On the day of the assay performance the cells were washed twice with PBS (w/o calcium and magnesium) and dislodged with a cell scraper, transferred to PBS, centrifuged and re-suspended in HBSS (w/o calcium and magnesium), supplemented with 1 g/L glucose and […] IBMX. The cell suspension was seeded on a 384 well plate (Greiner) and the assay was performed by adding compounds either test compounds alone (for agonist activity), or with test compound after a pre-incubation with 10 nM Dopamine as a stimulant (for antagonistic activity). After incubation (30 min at RT) the cell stimulation was stopped by adding the detecting reagents (cAMP-XL665 and anti-cAMP cryptate) diluted in lysis buffer. The signal was quantified by Homogenous Time-Resolved Fluorescence (HTRF) on a Perkin Elmer Envision plate reader after one hour of incubation at RT.
EC50 or IC50 values (concentrations causing half-maximal response or inhibition of control agonist response) were determined by non-linear regression analysis of the Log [concentration]/response curves generated with mean replicate values using a four parameter Hill equation curve fitting with GraphPad Prism 5 (GraphPad Software Inc., CA—USA).

SMILES: NC(=O)c1cccc(-c2ccc(OC(=O)NCCCCN3CCN(c4cccc(Cl)c4Cl)CC3)cc2F)c1 [Example 21, [4-(3-carbamoylphenyl)-3-fluoro-phenyl] N-[4-[4-(2,3-dichlorophenyl)piperazin-1-yl]butyl]carbamate]
- EC50: 18.6 nM
